Test results: PMC4669130

Tests used:
HL60/adr (ABCC1) cells = test: MTT cytotoxicity assay; conditions: inhibitor at 50 μM
HL60 cells = test: MTT cytotoxicity assay; conditions: HL60, inhibitor at 50 μM
S1-M1-80 (ABCG2) cells = test: MTT cytotoxicity assay
S1 cells = test: MTT cytotoxicity assay
[1] = Serum ALT and AST after 3 consecutive days of treatment; conditions: mice, paclitaxel i.v. 18 mg/kg alone
[2] = Liver histology (HE staining); conditions: mice, paclitaxel 18 mg/kg alone, 3 consecutive days
KB cells = test: MTT cytotoxicity assay; conditions: read-out: IC50 ± SD, anti-carcinogen alone
KBv200 (ABCB1) cells = test: MTT cytotoxicity assay; conditions: read-out: IC50 ± SD; KBv200, anti-carcinogen alone
MCF-7/adr (ABCB1) cells = test: MTT cytotoxicity assay; conditions: read-out: IC50 ± SD, anti-carcinogen alone

**Q.** For `CN(C)C(=O)CCSC(SCCC(=O)O)c1cccc(/C=C/c2ccc3ccc(Cl)cc3n2)c1` (centres unmarked), which “fold-enhancement of Doxorubicin cytotoxicity” value (HL60/adr (ABCC1) cells) is on record?
**A.** 4.46 fold

**Q.** And the “fold-enhancement of Doxorubicin cytotoxicity” value (HL60 cells)?
**A.** 1.02 fold

**Q.** Which “fold-enhancement of Topotecan cytotoxicity” value (S1-M1-80 (ABCG2) cells; S1-M1-80, inhibitor at 0.5 μM) does the source give for fumitremorgin C here?
**A.** 12.3 fold

**Q.** And the “fold-enhancement of Topotecan cytotoxicity” value (S1 cells; S1, inhibitor at 0.5 μM)?
**A.** 1.03 fold

**Q.** What does the source list for `CC(=O)O[C@H]1C(=O)[C@@]2(C)[C@H]([C@H](OC(=O)c3ccccc3)[C@]3(O)C[C@H](OC(=O)[C@H](O)[C@@H](NC(=O)c4ccccc4)c4ccccc4)C(C)=C1C3(C)C)[C@]1(OC(C)=O)CO[C@@H]1C[C@@H]2O`?
**A.** AST [1]: 87.8±10.46(0.884) U/L; histological change of liver [2]: mild congestion was observed in the central veins

**Q.** What does the source list for `CC[C@@]1(O)C(=O)OCc2c1cc1n(c2=O)Cc2cc3c(CN(C)C)c(O)ccc3nc2-1`?
**A.** fold-enhancement (S1-M1-80 (ABCG2) cells; S1-M1-80, anti-carcinogen alone (absence of inhibitor, reference)): 1.00 fold; pIC50 (S1-M1-80 (ABCG2) cells; read-out: IC50 ± SD, S1-M1-80, anti-carcinogen alone): 5.02; fold-enhancement (S1 cells; S1, anti-carcinogen alone (absence of inhibitor, reference)): 1.00 fold; pIC50 (S1 cells; read-out: IC50 ± SD, S1, anti-carcinogen alone): 6.07

**Q.** With `COc1cccc2c1C(=O)c1c(O)c3c(c(O)c1C2=O)C[C@@](O)(C(=O)CO)C[C@@H]3O[C@H]1C[C@H](N)[C@H](O)[C@H](C)O1` as the compound, how does the pIC50 (KB cells) read?
**A.** 6.21

**Q.** With cisplatin as the compound, how does the pIC50 (KB cells) read?
**A.** 6.48

**Q.** What about the pIC50 (KBv200 (ABCB1) cells) of the same compound?
**A.** 5.63

**Q.** And the pIC50 (MCF-7/adr (ABCB1) cells)?
**A.** 4.95

pIC50: −log10 of the molar value.
